This passage reports blood plasma ratio, fraction unbound and Ki results from ChEMBL document CHEMBL1144571, “ABP688, a novel selective and high affinity ligand for the labeling of mGlu5 receptors: identification, in vitro pharmacology, pharmacokinetic and biodistribution studies” (Bioorg Med Chem, 2007).

Amino acid sequences for entries named in this document (tags omitted).
UniProt P31424, whole entry: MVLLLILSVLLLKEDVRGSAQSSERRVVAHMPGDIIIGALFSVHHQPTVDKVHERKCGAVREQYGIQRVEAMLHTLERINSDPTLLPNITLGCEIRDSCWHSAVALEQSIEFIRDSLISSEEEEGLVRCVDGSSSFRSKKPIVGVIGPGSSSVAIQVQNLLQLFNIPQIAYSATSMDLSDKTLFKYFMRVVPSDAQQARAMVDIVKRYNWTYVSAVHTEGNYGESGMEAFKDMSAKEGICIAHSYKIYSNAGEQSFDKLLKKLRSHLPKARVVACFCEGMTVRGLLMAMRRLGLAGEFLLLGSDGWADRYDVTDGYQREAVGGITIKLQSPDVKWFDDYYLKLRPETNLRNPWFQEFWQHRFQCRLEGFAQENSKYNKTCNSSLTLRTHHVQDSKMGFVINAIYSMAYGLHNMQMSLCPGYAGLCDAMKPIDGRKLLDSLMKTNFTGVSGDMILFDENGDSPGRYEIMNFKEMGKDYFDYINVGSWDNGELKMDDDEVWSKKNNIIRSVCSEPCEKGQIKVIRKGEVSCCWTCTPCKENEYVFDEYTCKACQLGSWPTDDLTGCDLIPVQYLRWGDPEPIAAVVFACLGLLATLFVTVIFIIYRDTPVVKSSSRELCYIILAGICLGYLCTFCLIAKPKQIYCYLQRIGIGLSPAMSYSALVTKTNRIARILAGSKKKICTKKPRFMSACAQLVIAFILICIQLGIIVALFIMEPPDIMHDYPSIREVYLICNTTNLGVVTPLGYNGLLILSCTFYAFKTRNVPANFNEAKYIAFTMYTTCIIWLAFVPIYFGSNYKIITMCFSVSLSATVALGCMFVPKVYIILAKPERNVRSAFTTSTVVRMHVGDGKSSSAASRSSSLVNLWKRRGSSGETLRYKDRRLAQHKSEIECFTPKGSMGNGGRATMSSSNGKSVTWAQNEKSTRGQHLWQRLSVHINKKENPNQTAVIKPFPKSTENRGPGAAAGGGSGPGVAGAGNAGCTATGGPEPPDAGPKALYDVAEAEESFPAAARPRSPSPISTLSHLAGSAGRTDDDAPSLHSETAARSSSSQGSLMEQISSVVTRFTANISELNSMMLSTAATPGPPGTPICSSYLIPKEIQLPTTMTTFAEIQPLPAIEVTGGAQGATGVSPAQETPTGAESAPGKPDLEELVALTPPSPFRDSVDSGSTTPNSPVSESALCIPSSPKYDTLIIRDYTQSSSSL
UniProt P41594, whole entry: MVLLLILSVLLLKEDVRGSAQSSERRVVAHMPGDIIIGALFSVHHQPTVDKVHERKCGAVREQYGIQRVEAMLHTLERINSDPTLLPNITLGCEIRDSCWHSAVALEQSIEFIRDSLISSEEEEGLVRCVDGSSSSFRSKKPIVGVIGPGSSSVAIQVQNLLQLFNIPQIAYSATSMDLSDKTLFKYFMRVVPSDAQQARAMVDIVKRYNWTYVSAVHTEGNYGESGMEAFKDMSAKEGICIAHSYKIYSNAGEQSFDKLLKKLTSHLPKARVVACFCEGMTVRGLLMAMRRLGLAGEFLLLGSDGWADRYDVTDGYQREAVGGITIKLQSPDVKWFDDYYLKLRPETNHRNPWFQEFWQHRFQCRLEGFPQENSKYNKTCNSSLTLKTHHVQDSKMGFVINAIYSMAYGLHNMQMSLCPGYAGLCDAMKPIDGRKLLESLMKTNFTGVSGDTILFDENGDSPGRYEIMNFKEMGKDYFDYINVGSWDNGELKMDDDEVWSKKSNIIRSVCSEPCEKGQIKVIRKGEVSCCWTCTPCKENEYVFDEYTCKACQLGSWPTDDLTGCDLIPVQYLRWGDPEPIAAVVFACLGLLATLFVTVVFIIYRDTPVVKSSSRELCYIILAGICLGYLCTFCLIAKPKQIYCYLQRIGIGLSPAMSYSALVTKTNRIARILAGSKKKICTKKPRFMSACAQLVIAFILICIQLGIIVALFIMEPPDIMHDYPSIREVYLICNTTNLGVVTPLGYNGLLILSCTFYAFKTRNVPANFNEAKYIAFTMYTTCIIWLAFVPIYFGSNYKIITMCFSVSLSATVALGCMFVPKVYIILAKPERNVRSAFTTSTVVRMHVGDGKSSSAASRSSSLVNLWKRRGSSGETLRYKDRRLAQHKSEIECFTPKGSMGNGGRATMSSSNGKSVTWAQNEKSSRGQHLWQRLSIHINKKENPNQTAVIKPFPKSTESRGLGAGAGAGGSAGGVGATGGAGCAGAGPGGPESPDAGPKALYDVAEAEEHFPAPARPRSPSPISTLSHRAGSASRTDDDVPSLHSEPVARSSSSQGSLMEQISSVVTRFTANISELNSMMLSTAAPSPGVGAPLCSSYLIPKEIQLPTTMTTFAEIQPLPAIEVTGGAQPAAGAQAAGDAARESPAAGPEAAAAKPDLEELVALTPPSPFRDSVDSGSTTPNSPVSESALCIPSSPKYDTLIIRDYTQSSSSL

pKi: −log10 of the molar value.

A short description of series [1]: Ratio of drug level in blood to plasma in rat. It is filed as ADME, organism-based.
Series [2] can be described thus: Ratio of drug level in blood to plasma in human. It is filed as ADME, organism-based.
The species named for series [3] is Homo sapiens. As to the kind of experiment: Protein binding in human plasma as percentage unbound.
The target of series [4] is Metabotropic glutamate receptor 5 (Rattus norvegicus, UniProt P31424). As to the kind of experiment: Displacement of [3H]ABP688 from mGluR5 in rat brain membrane. It is filed as cell membranes. A general note: Displacement assays read how much labelled ligand stays bound in the presence of the test substance.
Series [5] concerns the target Metabotropic glutamate receptor 5 (Homo sapiens, UniProt P41594). The series is described as follows: Displacement of [3H]ABP688 from human mGluR5 receptor expressed in L (tk-) cells. It is filed as cell-based.

In general, fraction unbound refers to the share of the substance not bound to proteins or other matrix. Read a low fraction unbound as extensive binding. `[3H]C([3H])([3H])O/N=C1/C=C(C#Cc2cccc(C)n2)CCC1`: the blood plasma ratio in series [1] was 0.74; in series [2], 0.57. The compound further registered a free fraction (fraction unbound) in series [3] of 0.044.

Usually pKi stands for the Ki on a negative log10 scale, so that one unit is a factor of ten. Higher therefore signals a low Ki. For the compound `Cc1cccc(C#Cc2ccccc2)n1`, the figures for the pKi in series [4] and in series [5] were 7.72 and 7.70, respectively.
